This is a selection; strong and weak results do not stand in their true shares. Some results for these compounds are left out of this collection, so the calls shown say nothing about other tests. Calls of active or inactive are those of the source.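 Rule for the calls: active = viability gain under doxorubicin at or above a set limit, the compound median plus 3 SD (cut at about 4.7% in these data); inactive = the rest.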
Assay: protection of MRP-1-high cells against doxorubicin toxicity – H69AR cells, CellTiter-Glo, MRP-1 activator project, primary screen (AID 799);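 note: MRP-1 overexpressing cells given doxorubicin 25 µM after compound pretreatment; 18-22 h compound pretreatment then 72 h with doxorubicin before readout; 0% = doxorubicin-only wells and 100% = vehicle-treated cells without doxorubicin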
Conditions: viability rescue, at 10 µM, active compounds read high

Structure (SMILES)	viability increase
CN(C)C1CCCC1OC(=O)C(O)(c1ccccc1)c1ccccc1 (stereo not given)	inactive: -0.14%
CCN1CCCC(OC(=O)C2(O)c3ccccc3C=Cc3ccccc32)C1 (stereo not given)	inactive: -2.16%
CC(C)N1C(=O)CC2(CCN(CCOC(=O)C(O)(c3ccccc3)c3ccccc3)CC2)C1=O	inactive: -1.66%
O=C(OC1CN2CCC1CC2)C(CO)(c1ccccc1)c1ccccc1 (stereo not given)	inactive: -0.24%
CN(C)c1cccc(C(=O)NCC2(N(C)C)CCCCC2)c1	inactive: -2.14%
